# Binding of CDR-mutated scFvs to a peptide of the spike HR2 region

The target is the same throughout: PDVDLGDISGINAS, from the HR2 region of SARS-CoV-2 spike.

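Phage display of a naive human antibody library on the peptide gave the parent. These sequences belong to a second round, designed from the earlier measurements on random variants of the parent. Group labels follow the data file (Ctrl: baseline library sampled from a position-specific scoring matrix, with some repeated check sequences; Rand: our label for a block that the file lists under HC and that is probably the random mutants of the ten best first-round binders; En: ensemble of fine-tuned language models; GP: Gaussian process model; GPLM: also part of the Gaussian process libraries; HC: hill climbing; Gen: genetic algorithm; Gibbs: Gibbs sampling; a sequence that several methods proposed may carry one label only). The assay is AlphaSeq: two haploid yeast populations carry antibody and antigen on their surface. After mating in shaken culture at 30 °C for 16 h, diploids were selected and their barcode pairs sequenced. A regression on co-assayed BCL2-family reference pairs converts the normalised counts of each replicate to an apparent Kd. Mating was done six times.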

Ab-14 is the parent antibody, in scFv form: VH, then a 15-residue (Gly4Ser)3 linker, then VL. The light chain is unchanged in all variants.
VH: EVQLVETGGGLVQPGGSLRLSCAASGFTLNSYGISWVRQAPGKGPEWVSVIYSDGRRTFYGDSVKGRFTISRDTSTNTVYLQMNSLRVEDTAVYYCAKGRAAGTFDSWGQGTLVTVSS
VL: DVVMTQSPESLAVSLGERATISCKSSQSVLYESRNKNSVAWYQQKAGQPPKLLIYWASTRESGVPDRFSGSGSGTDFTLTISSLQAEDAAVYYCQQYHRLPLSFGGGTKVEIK

The parent's heavy chain CDRs are GFTLNSYGIS, VIYSDGRRTFYGDSVK, GRAAGTFDS; each variant's own CDRs replace them letter for letter.
Scale: log10 of Kd in nM, estimated from mating counts; low values are strong binders.
The mean shown is taken over the replicates in which the pair was detected.
"no signal" marks a missing value. The strain was present, yet no cells mated with the target were sequenced in any replicate, which points to weak or no binding.
In the paper, a design with two or fewer of six values counts as a poor binder.
The range of this assay differs from that of the first round, and the authors advise against merging the two.
Three control strains display no target. For all heavy chain designs, 1% of the pairings with them gave a signal, with a median of 2.08 and one signal in twenty below 0.84, so weak values seen in few replicates may be background. For each scFv, signals with the empty controls are counted beside the result.

CDR-H1	CDR-H2	CDR-H3	group	mean log10 Kd (nM)	replicates with signal	empty controls
GFTLDSYGRS	VIDSDGRRTFYGDSVK	GRAAGTALS	Rand	no signal	0/6	0/18
GFNIDEYGIS	VIYADGARTAYADKVK	GFNWNISVN	En_Gibbs	no signal	0/6	0/18
GFDLNEYGIS	VIYADGRRTFYADSVK	GNVAGTFDS	En_HC	-0.46	6/6	1/18
GFSLNSYGIS	VIYSDGRRTFYQDSVK	GMLAGTFDS	GP_HC	0.93	6/6	0/18
GFSLNSYGIS	VIYSDGRRTFYGDSVK	GVVAGTFDS	GPLM_Gen	-0.03	6/6	0/18
FKIGEDYGIS	VIYADGLRTAYENSVK	GDIAGTFDL	En_Gibbs	0.73	6/6	0/18
GKHLDEFGIS	VIYADGLRMHYANSVK	GEMAGTFTT	En_Gibbs	no signal	0/6	0/18
GFDINEYGIS	VIYADGVRSAYAQQVK	GHGEVVSMD	En_Gibbs	no signal	0/6	1/18
GFDLDEYGIS	VIYADGMRTAYADDVK	GENAGTFDM	En_Gen	0.99	4/6	0/18
GFDLNEYGIS	VIYADGRRTFYSDSVK	GQLAGTFDI	En_HC	-0.71	6/6	0/18
GFDLNEYGIS	VIYADGSRTAYADSVK	GTNAGTFDQ	En_Gen	-0.29	6/6	0/18
GSNLDEYGIS	VIYADGMRQAYIEDVK	GQSGVSVFN	En_Gibbs	no signal	0/6	0/18
GFDLNEYGIS	VIYADGKRTFYADSVK	GNQAGTFDL	En_HC	-0.67	6/6	1/18
GFTLDSYGIS	VIYSDGYRTFYGDSVK	GRAAGTFDS	Ctrl	0.79	3/6	0/18
GFTLNSYGIS	VIYSDGRRTFYGDSVK	GGAAGTFDV	Ctrl	1.68	3/6	1/18
GFDLNEYGIS	VIYADGRRTFYADSVK	GQLAGTFVV	En_HC	0.46	6/6	1/18
GFVLNSYGIS	VIYSDGMRTFYSDAVA	GRAAGTFDS	Ctrl	1.82	2/6	0/18
GFNIGSYGIS	VIYSDGRRTFYGDSVA	GRNGGTFDS	Ctrl	3.32	3/6	0/18
GFDLDEYGIS	VIYADGKRTAYADSVK	GTNAGTFDI	En_Gen	0.03	6/6	0/18
GFDLEDYGIS	VIYADGRRTFYADSVK	GEVAGTFDS	En_HC	-0.44	6/6	0/18
GFSLNSYGIS	VIYSDGRRTFYKDSVK	GHAAGTFDS	GPLM_Gen	1.70	5/6	0/18
GYDIQEYGIS	VIYADGVRVAYHDSVK	GQTAGFFLL	En_Gibbs	no signal	0/6	0/18
GFTINEYGIS	VIYSDGRRTAYGDSVK	GRAAGTFDS	Ctrl	-0.14	6/6	0/18
GFNLNSYGIS	VIYSDGRRTFYADSVK	GRNAGTFDS	GPLM_Gen	1.34	4/6	0/18
GFTLNEYGIS	VIYSDGRRTFYGDSVK	GAAAVTFNQ	Rand	no signal	0/6	0/18
GFTLNSYGIS	VIYSDGRRTFYTDSVK	GMLAGTFDS	GP_HC	1.18	1/6	0/18
GFDLNEYGIS	VIYADGVRTAYVDDVK	GNVAGTFDV	En_Gen	-0.45	6/6	0/18
GFTLNSYGIS	VIYSDGRRTFYGDKVK	GRARGTFDS	Ctrl	0.73	5/6	0/18
GFQLNSYGIS	VIYSDGRRTFYSDSVK	GKTAGTFDS	GP_Gen	0.05	6/6	0/18
GFNLNEYGIS	VIYADGRRKFYADSVK	GNTAGTFDV	En_HC	-0.60	6/6	0/18
GFSLNEYGIS	VIYSDGYRTFYGDSVK	GRTAGTFDS	GPLM_Gen	0.24	6/6	0/18
GFGLNSYGIS	VIYADGRRTFYGDSVK	GQAAGTFDS	GPLM_Gen	0.28	6/6	0/18
GFDLNSYGIS	VIYSDGRRTFYQDSVK	GKVAGTFDS	GP_Gen	0.09	6/6	1/18
GFDLNEYGIS	VIYADGKRTQYIDSVK	GNEAGTFDS	En_HC	-0.23	6/6	1/18
YFDLNSYGIS	VIYSDGRRTFYGDSVK	GKNAGTFDS	GP_Gibbs	1.19	4/6	0/18
GFDLNEYGIS	VIYADGQRTAYADDVK	GQNAGTFDI	En_Gen	-0.22	6/6	0/18
GVNLDEYGIS	VIYADGVRQHYADSVK	GTHGDFGVV	En_Gibbs	no signal	0/6	0/18

Continued, with the values leading:

mean log10 Kd (nM)	replicates with signal	empty controls	CDR-H1	CDR-H2	CDR-H3	group
no signal	0/6	0/18	GFDLEEYGIS	VIYADGVRTAYKNKVK	GWAAGGQFD	En_Gibbs
-0.32	6/6	0/18	GFDLNEYGIS	VIYADGRRTAYADSVK	GEVAGTFVS	En_HC
0.07	6/6	2/18	GFSLNSYGIS	VIYSDGRRTFYADSVK	GEAAGTFDS	GPLM_Gen
no signal	0/6	0/18	GFTLNSYGIS	VIYSDGRRTFYDDSVK	GTAAGEFKS	Ctrl
no signal	0/6	0/18	GFTLNSYGIS	VIYSDGRRTFYGDKVK	GRAAHTFDS	Ctrl
0.53	6/6	0/18	GFSLNSYGIS	VIYSDGRRTFYADSVK	GRTAGTFDF	GPLM_Gen
no signal	0/6	0/18	GEDLQEYGIS	VIYADGQRQEYSDDVK	GQVAGHFLH	En_Gibbs
no signal	0/6	0/18	GFTLNSYGIS	VIYFDGRRTFYGDSVK	GRAPGTFDS	Ctrl
1.04	6/6	0/18	GFDLNEYGIS	VIYADGVRTAYSDSVK	GEAGGTFDS	En_HC
no signal	0/6	0/18	GFTLNDYGIS	VIYSDGRRTFYIDSVK	GRAAGKFDS	GPLM_HC
0.52	5/6	0/18	KFDLNSYGIS	VIYSDGRRTFYGDSVK	GRIAGTFDS	GP_Gen
-0.28	6/6	0/18	GFDLNEYGIS	VIYADGRRTFYADSVK	GQNAGTFDV	En_Gen
no signal	0/6	0/18	GYDLVEYGIS	VIYADGQRTVYADDVK	GNHGGTIDT	En_Gibbs
1.03	6/6	1/18	GFTLNEYGIS	VIYSDGRRTFYTDHVK	GRFAGTFDS	GP_HC
no signal	0/6	2/18	GFTINSYGIS	VIYSDGRRTFYSDSVK	GEAAGTFDS	GPLM_Gen
no signal	0/6	0/18	GFTLNSYGIS	VIYSDGRRTFYGDALK	GRAAGTFDS	Ctrl
no signal	0/6	0/18	GGNLDEYGIS	VIYADGKRRQYVDNVK	GSHADMFDM	En_Gibbs
-0.11	6/6	0/18	GFDLNEYGIS	VIYADGRRTFYADSVK	GEAAGTFLQ	En_HC
no signal	0/6	0/18	GFTLNSYGIS	VIYSDGRRTFYGDSVK	GRAAGVADS	Ctrl
no signal	0/6	0/18	GFTLNEYGIS	VIASDGRRTFYGDSVK	GRAAVTFDQ	Rand
0.98	6/6	0/18	GFDLNSYGIS	VIYSDGMRTFYIDSVK	GRAAGTFDS	GPLM_Gibbs
no signal	0/6	0/18	GFSLEEYGIS	VIYADGSRTSYQESVK	GLYIGMLDV	En_Gibbs
1.22	1/6	0/18	GFTLNSYGIS	VIYSDGRRTFYGNSVK	GKAAGTFDM	Ctrl
1.68	1/6	0/18	GFTLNSYGIQ	VIYSDGRRTFYGDSVK	GRAAGTFDS	Ctrl
1.66	5/6	0/18	GFNLNSYGIS	VIYSDGRRTFYLDSVK	GRQAGTFDS	GP_Gen
no signal	0/6	0/18	GFTLNSYGIS	VIYSDGRRTFYQDSVK	GRAAGTWES	Ctrl
-0.73	6/6	0/18	GFDLNEYGIS	VIYADGQRTAYADSVK	GKNAGTFDV	En_Gen
0.35	6/6	0/18	GFDLNSYGIS	VIYSDGRRTFYGDSVK	GKAAGSFDS	GPLM_HC
0.84	5/6	0/18	GFTLNSYGIS	VIYSDGRRTFYEDSVK	GREAGTFDS	Ctrl
no signal	0/6	0/18	GFHLNEYGIS	VIYSDGRRTFYGDSVK	GRAAVTFDQ	GPLM_HC
no signal	0/6	0/18	GFTLNMYGIS	VIYSDGRRTFYGDSVK	GRAGGTFDP	Ctrl
-0.17	6/6	0/18	GFSLNEYGIS	VIYSDGIRTFYGDSVK	GRTAGTFDT	GP_Gibbs
no signal	0/6	0/18	GFTLNDYGIS	VIYSDGRRTFYGDSVK	GRYALTFIS	Rand
1.36	6/6	0/18	GFKLNSYGIS	VIYSDGRRTFYSDSVK	GKAAGTFDS	GP_Gibbs
-0.11	6/6	2/18	GFDLNEYGIS	VIYADGMRKYYADSVK	GNVAGTFDL	En_Gen
no signal	0/6	0/18	GFDLNSYGIS	VIYSDGRRTFYADSVK	GRAAGWFNS	GPLM_HC
-0.31	6/6	0/18	GFDLNEYGIS	VIYADGLRTAYSDSVK	GENAGTFDI	En_Gen

Excerpt, the first 8 entries:

{"CDR-H1": "GFTLDSYGRS", "CDR-H2": "VIDSDGRRTFYGDSVK", "CDR-H3": "GRAAGTALS", "group": "Rand", "mean log10 Kd (nM)": "no signal", "replicates with signal": "0/6", "empty controls": "0/18"}
{"CDR-H1": "GFNIDEYGIS", "CDR-H2": "VIYADGARTAYADKVK", "CDR-H3": "GFNWNISVN", "group": "En_Gibbs", "mean log10 Kd (nM)": "no signal", "replicates with signal": "0/6", "empty controls": "0/18"}
{"CDR-H1": "GFDLNEYGIS", "CDR-H2": "VIYADGRRTFYADSVK", "CDR-H3": "GNVAGTFDS", "group": "En_HC", "mean log10 Kd (nM)": "-0.46", "replicates with signal": "6/6", "empty controls": "1/18"}
{"CDR-H1": "GFSLNSYGIS", "CDR-H2": "VIYSDGRRTFYQDSVK", "CDR-H3": "GMLAGTFDS", "group": "GP_HC", "mean log10 Kd (nM)": "0.93", "replicates with signal": "6/6", "empty controls": "0/18"}
{"CDR-H1": "GFSLNSYGIS", "CDR-H2": "VIYSDGRRTFYGDSVK", "CDR-H3": "GVVAGTFDS", "group": "GPLM_Gen", "mean log10 Kd (nM)": "-0.03", "replicates with signal": "6/6", "empty controls": "0/18"}
{"CDR-H1": "FKIGEDYGIS", "CDR-H2": "VIYADGLRTAYENSVK", "CDR-H3": "GDIAGTFDL", "group": "En_Gibbs", "mean log10 Kd (nM)": "0.73", "replicates with signal": "6/6", "empty controls": "0/18"}
{"CDR-H1": "GKHLDEFGIS", "CDR-H2": "VIYADGLRMHYANSVK", "CDR-H3": "GEMAGTFTT", "group": "En_Gibbs", "mean log10 Kd (nM)": "no signal", "replicates with signal": "0/6", "empty controls": "0/18"}
{"CDR-H1": "GFDINEYGIS", "CDR-H2": "VIYADGVRSAYAQQVK", "CDR-H3": "GHGEVVSMD", "group": "En_Gibbs", "mean log10 Kd (nM)": "no signal", "replicates with signal": "0/6", "empty controls": "1/18"}

Source: Li et al. 2023 (doi:10.1038/s41467-023-39022-2), MIT Lincoln Laboratory and A-Alpha Bio; data file from the FLAb repository.